Sequences of proteins named here, by UniProt entry; tags and fusion partners are left off. Residues count along the entry.
UniProt Q00534, whole entry: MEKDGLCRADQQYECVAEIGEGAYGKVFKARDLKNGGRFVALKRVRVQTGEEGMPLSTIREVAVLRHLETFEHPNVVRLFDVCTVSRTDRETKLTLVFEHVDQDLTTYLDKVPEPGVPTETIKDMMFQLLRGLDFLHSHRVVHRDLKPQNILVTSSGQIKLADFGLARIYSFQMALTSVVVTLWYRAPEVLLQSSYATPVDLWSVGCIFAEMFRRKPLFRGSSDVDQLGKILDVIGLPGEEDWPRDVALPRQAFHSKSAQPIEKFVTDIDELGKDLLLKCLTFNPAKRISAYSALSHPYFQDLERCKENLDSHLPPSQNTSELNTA
UniProt O96017, whole entry: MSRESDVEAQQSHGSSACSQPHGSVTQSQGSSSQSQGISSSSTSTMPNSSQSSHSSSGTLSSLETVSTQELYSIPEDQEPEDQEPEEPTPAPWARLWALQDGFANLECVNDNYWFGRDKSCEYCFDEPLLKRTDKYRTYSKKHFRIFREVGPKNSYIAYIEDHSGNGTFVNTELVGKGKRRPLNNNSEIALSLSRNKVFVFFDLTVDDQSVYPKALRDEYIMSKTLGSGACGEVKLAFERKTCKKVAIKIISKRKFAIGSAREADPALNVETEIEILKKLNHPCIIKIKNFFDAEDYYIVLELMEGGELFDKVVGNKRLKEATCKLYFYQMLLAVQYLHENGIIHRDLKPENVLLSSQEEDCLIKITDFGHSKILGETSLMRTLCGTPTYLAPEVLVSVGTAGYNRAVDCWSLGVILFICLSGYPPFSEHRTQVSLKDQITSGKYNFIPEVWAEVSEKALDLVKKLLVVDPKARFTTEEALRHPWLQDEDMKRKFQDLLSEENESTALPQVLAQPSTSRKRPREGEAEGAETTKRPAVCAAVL
UniProt Q9Y6M4, whole entry: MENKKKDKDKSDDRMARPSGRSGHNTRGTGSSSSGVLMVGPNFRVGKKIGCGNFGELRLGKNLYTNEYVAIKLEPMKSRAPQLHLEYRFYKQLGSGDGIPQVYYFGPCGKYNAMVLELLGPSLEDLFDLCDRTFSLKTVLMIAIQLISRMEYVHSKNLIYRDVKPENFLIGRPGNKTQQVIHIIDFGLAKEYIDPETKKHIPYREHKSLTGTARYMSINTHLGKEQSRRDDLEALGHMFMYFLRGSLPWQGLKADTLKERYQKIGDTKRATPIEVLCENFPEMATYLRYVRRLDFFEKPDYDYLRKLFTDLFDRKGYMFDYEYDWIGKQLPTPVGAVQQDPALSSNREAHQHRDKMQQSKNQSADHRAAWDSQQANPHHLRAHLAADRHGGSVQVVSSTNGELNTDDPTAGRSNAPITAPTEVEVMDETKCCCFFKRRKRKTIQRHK
UniProt Q9BQI3, whole entry: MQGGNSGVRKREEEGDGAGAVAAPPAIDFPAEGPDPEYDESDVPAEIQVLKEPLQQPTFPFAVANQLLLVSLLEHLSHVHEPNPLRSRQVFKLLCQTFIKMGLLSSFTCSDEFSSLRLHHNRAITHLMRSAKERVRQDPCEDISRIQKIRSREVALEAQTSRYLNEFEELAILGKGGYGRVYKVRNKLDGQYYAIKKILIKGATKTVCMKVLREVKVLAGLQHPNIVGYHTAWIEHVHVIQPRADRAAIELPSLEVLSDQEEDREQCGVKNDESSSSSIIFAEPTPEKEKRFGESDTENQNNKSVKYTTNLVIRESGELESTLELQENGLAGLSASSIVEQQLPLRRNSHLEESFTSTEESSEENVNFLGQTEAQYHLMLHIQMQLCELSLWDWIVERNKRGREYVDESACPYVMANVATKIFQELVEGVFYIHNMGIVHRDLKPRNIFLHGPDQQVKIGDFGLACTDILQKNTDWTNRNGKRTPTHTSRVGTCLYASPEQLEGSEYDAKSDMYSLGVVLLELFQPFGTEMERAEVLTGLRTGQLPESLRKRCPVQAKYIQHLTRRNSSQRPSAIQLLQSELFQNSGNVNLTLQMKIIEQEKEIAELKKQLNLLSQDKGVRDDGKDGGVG
UniProt Q9HA64, whole entry: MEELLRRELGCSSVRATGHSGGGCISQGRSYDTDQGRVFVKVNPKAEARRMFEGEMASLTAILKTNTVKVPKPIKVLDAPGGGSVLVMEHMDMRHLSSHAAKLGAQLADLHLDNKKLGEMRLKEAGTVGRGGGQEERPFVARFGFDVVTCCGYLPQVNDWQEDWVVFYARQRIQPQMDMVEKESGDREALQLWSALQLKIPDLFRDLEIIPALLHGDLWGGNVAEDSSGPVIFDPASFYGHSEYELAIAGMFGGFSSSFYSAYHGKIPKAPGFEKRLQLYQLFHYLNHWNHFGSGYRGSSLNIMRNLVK
UniProt Q04912, 25-1400 limits assumed: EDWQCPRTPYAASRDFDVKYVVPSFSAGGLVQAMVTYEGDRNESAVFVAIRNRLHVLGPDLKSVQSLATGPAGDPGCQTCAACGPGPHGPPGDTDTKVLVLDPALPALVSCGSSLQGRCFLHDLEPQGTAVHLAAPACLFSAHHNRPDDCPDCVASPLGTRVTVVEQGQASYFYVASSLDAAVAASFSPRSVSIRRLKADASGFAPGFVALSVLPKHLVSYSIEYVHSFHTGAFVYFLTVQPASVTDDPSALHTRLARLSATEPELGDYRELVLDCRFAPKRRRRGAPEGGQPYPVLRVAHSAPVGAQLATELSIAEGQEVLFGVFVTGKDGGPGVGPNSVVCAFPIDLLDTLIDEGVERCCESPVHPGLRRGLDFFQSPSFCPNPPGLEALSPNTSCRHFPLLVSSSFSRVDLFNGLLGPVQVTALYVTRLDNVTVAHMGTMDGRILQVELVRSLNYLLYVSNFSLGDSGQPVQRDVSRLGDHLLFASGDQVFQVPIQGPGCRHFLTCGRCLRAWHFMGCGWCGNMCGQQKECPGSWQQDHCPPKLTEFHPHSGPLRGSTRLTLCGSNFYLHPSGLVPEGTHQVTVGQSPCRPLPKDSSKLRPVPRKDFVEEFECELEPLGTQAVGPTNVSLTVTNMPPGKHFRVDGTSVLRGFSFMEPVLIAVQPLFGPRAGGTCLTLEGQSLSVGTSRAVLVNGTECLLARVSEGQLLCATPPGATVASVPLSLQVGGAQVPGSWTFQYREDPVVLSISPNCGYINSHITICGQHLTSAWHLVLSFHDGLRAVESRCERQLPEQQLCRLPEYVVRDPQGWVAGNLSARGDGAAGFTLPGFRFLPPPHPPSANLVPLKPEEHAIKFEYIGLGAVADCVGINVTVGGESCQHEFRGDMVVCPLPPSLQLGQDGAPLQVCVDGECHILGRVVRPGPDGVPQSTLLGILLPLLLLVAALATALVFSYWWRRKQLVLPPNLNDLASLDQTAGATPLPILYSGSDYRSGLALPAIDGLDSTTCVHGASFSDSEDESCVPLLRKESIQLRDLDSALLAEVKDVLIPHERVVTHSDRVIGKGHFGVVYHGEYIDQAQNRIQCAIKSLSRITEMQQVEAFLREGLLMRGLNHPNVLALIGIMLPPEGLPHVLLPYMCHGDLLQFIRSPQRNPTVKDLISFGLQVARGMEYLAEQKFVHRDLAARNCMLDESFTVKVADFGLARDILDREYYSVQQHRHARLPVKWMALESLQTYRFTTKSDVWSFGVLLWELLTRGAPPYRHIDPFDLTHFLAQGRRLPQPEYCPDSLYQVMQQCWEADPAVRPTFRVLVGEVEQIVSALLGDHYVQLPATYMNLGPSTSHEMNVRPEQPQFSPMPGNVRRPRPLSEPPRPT
UniProt Q16513, whole entry: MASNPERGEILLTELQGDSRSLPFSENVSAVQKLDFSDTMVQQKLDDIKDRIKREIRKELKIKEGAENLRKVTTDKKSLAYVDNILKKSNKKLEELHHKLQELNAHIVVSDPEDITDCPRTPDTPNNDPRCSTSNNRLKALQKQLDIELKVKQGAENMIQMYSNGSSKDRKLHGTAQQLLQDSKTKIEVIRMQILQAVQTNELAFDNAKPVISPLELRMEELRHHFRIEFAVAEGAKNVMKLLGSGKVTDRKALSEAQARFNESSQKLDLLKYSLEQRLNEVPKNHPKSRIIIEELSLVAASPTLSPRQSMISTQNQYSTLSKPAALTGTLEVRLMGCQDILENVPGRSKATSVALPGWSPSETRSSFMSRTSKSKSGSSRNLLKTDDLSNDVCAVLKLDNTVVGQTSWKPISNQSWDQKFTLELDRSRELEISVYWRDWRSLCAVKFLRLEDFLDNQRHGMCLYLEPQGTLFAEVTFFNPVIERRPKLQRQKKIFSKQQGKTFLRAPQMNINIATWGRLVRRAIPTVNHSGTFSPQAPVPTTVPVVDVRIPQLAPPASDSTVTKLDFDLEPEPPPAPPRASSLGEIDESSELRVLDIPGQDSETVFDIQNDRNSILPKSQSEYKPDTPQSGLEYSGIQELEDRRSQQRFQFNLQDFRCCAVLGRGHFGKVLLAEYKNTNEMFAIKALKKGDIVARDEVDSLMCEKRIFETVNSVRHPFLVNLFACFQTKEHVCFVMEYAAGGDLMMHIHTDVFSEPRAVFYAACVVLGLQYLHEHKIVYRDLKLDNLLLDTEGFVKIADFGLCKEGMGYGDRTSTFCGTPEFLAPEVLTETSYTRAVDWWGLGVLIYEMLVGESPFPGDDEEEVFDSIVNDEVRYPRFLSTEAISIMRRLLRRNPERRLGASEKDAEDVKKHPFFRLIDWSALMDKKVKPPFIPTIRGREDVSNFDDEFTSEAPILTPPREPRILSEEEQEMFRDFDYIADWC
UniProt Q13882, whole entry: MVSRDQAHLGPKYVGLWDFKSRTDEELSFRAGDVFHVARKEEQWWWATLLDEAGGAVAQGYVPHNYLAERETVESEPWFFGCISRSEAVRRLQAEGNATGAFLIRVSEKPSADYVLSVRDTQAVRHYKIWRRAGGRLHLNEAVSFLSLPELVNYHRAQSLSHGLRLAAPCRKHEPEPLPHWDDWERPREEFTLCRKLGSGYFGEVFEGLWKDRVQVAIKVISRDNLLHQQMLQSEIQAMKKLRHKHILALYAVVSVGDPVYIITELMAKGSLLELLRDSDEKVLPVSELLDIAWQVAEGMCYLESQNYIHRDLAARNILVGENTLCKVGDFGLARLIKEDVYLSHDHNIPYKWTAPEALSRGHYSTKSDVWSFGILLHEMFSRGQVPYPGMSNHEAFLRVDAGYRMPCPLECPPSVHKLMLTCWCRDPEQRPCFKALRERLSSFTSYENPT
UniProt Q9Y572, whole entry: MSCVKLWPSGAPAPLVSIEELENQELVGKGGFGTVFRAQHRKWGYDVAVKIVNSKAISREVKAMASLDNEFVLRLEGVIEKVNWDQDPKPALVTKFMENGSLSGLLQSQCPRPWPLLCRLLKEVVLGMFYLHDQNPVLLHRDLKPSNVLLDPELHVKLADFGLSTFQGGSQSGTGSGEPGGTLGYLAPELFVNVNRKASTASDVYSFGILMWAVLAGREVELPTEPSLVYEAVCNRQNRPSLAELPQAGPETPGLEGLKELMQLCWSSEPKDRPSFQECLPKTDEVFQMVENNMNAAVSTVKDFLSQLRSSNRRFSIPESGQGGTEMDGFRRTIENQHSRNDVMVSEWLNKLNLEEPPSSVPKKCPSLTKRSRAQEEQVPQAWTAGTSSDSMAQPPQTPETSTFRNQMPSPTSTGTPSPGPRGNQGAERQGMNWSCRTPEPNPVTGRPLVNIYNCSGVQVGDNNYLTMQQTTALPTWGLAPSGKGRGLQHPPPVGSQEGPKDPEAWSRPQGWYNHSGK
UniProt Q7L7X3, whole entry: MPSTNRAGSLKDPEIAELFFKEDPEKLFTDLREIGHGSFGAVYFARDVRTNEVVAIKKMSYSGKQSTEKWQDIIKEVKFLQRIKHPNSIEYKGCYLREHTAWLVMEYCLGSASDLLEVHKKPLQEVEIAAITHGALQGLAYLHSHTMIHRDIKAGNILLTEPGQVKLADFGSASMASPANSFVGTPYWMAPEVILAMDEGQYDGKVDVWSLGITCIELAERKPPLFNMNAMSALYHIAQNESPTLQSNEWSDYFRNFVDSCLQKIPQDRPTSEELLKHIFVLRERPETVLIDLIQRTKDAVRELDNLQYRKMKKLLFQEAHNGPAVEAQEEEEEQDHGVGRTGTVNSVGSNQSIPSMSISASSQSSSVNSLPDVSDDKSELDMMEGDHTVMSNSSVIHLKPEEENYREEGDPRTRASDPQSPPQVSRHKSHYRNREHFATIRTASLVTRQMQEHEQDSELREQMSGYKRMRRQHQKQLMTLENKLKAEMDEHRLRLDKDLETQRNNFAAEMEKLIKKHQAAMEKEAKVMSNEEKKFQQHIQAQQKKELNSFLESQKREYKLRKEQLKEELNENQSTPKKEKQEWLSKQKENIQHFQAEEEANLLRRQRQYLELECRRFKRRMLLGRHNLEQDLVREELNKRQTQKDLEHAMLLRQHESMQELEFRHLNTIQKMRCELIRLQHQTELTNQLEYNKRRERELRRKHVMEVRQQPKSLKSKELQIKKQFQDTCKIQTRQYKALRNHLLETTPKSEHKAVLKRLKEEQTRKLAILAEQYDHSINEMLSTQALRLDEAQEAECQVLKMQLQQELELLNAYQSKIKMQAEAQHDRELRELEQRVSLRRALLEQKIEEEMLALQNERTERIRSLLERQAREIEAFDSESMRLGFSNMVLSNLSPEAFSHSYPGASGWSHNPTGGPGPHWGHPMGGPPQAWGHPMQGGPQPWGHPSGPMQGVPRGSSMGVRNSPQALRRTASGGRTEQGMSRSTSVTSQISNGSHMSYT

According to patent publication US20260384438A1, “PYRROLOPYRIMIDINE CARBOXAMIDES” (published 2026):

Legend:
Test in all cases: KAT chemical proteomics
[1] = target: ADCK1 (Homo sapiens, UniProt Q86TW2)
[2] = target: CDK10 (Homo sapiens, UniProt Q15131)
[3] = target: CDK6 (Homo sapiens, UniProt Q00534)
[4] = target: CHEK2 (Homo sapiens, UniProt O96017)
[5] = target: CHUK (Homo sapiens, UniProt O15111)
[6] = target: CIT (Homo sapiens, UniProt O14578)
[7] = target: CLK2 (Homo sapiens, UniProt P49760)
[8] = target: CPNE3 (Homo sapiens, UniProt O75131)
[9] = target: CSNK1A1 (Homo sapiens, UniProt P48729)
[10] = target: CSNK1G3 (Homo sapiens, UniProt Q9Y6M4)
[11] = tested on: CSNK2B
[12] = target: DCK (Homo sapiens, UniProt P27707)
[13] = target: EIF2AK1 (Homo sapiens, UniProt Q9BQI3)
[14] = target: EPHB4 (Homo sapiens, UniProt P54760)
[15] = target: ERN1 (Homo sapiens, UniProt O75460)
[16] = target: FASTKD3 (Homo sapiens, UniProt Q14CZ7)
[17] = target: FN3KRP (Homo sapiens, UniProt Q9HA64)
[18] = target: GSG2 (Homo sapiens, UniProt Q8TF76)
[19] = tested on: GTF2H4
[20] = target: HIPK1 (Homo sapiens, UniProt Q86Z02)
[21] = target: KIT (Homo sapiens, UniProt P10721)
[22] = target: MAP2K1 (Homo sapiens, UniProt Q02750)
[23] = target: MAP2K2 (Homo sapiens, UniProt P36507)
[24] = target: MAP4K5 (Homo sapiens, UniProt Q9Y4K4)
[25] = target: MAPK15 (Homo sapiens, UniProt Q8TD08)
[26] = target: MELK (Homo sapiens, UniProt Q14680)
[27] = tested on: MNAT1
[28] = target: MST1R (Homo sapiens, UniProt Q04912)
[29] = target: MTOR (Homo sapiens, UniProt P42345)
[30] = target: NEK7 (Homo sapiens, UniProt Q8TDX7)
[31] = target: PDGFRB (Homo sapiens, UniProt P09619)
[32] = target: PDXK (Homo sapiens, UniProt O00764)
[33] = target: PGK1 (Homo sapiens, UniProt P00558)
[34] = target: PKN2 (Homo sapiens, UniProt Q16513)
[35] = target: PRKCE (Homo sapiens, UniProt Q02156)
[36] = target: PRKDC (Homo sapiens, UniProt P78527)
[37] = target: PTK6 (Homo sapiens, UniProt Q13882)
[38] = target: RIPK3 (Homo sapiens, UniProt Q9Y572)
[39] = target: RPS6KA4 (Homo sapiens, UniProt O75676)
[40] = target: TAOK1 (Homo sapiens, UniProt Q7L7X3)
[41] = target: TBK1 (Homo sapiens, UniProt Q9UHD2)

Measured: RB50

Cc1nc(C(F)(F)F)c2c(C(N)=O)c(N)n(-c3c(C)ccc(O)c3C)c2n1 (single isomer, unassigned)
278 nM: [37]
417 nM: [7]
173 nM: [14]
>50 µM: all other assays above
